Patent publication US20240350588A1 (SUNSHINE LAKE PHARMA, published 2024)

T1: human GFRAL (UniProtKB-Q6UXVO) (human, UniProt Q6UXV0 19-394)
T1 sequence (looked up): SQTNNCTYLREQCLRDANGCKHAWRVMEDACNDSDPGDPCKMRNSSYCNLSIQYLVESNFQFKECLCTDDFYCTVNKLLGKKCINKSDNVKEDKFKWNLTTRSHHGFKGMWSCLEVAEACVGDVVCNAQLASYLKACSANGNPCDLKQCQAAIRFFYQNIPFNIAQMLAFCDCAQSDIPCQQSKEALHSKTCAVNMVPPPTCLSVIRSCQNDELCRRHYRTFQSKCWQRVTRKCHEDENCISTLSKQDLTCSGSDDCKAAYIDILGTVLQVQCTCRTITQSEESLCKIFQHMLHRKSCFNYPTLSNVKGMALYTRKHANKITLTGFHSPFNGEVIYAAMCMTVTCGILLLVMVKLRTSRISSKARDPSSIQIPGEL


Molecular target: T1, human GFRAL (UniProtKB-Q6UXVO)
Experiment: cell-based or functional assay

Row | Relative activity ratio (native GDF15 EC50: Fc-GDF15 construct EC50), ERK1/2 phosphorylation HTRF in HEK293T cells expressing human GFRAL and RET | Binder
1 | 2.79 ratio | Fc-GDF15 fusion protein M15 (Fc fusion) GGPSVFLFPPKPKDTLMISRTPEVTCVVVDVSQEDPEVQFNWYVDGVEVHNAKTKPREEQFNSTYRVVSVLTVLHQDWLNGKEYKCKVSNKGLPSSIEKTISKAKGQPREPQVYTLPPSQEEMTKNQVSLTCLVKGFYPSDIAVEWESNGQPENNYKTTPPVLDSDGSFFLYSRLTVDKSRWQEGNVFSCSVMHEALHNHYTQESLSLSLGGGGGSGGGGSAPAPAPAPAPAPAPAPAPAPGGGGSGGGGSDHCPLGPGRCCRLHTVRASLEDLGWADWVLSPREVQVTMCIGACPSQFRAANMHAQIKTSLHRLKPDTVPAPCCVPASYNPMVLIQKTDTGVSLQTYDDLLAKDCHCI
2 | 2.03 ratio | Fc-GDF15 fusion protein M16 (Fc fusion) GPSVFLFPPKPKDTLMISRTPEVTCVVVDVSQEDPEVQFNWYVDGVEVHNAKTKPREEQFNSTYRVVSVLTVLHQDWLNGKEYKCKVSNKGLPSSIEKTISKAKGQPREPQVYTLPPSQEEMTKNQVSLTCLVKGFYPSDIAVEWESNGQPENNYKTTPPVLDSDGSFFLYSRLTVDKSRWQEGNVFSCSVMHEALHNHYTQESLSLSLGGGGGSGGGGSAPAPAPAPAPAPAPAPAPAPGGGGSGGGGSDHCPLGPGRCCRLHTVRASLEDLGWADWVLSPREVQVTMCIGACPSQFRAANMHAQIKTSLHRLKPDTVPAPCCVPASYNPMVLIQKTDTGVSLQTYDDLLAKDCHCI
